Assay results: patent publication US20160095923A1, “ORAL COMPOSITION COMPRISNG (+)-CATECHIN” (VALORE, priority 2013, published 2016)

Conditions: in vivo, po
Experimental: The experimental results described below were obtained on the basis of a study carried out in healthy human beings and in healthy Wistar rats weighing approximately 250 grams.
With regard to taking the blood samples from the rats and from the human beings, the blood was collected in tubes internally coated with EDTA and was then centrifuged at 3000 rpm (revolutions per minute) at ambient temperature for 45 min, and then for 15 min at a temperature of 4° C. The plasma was then collected and stored at −70° C. before analysis.
The analytical technique (LC-MS/MS for Liquid Chromatography coupled to tandem Mass Spectrometry) for measuring the active substance in the blood was based on the method described by Mata-Bilbao et al., published in 2007 in the Journal of Agricultural and Food Chemistry, volume 55, page 8857.
The free (+)-catechin was extracted from the plasma with a solution of phosphoric acid, EDTA and ascorbic acid and was then purified by SPE (solid phase extraction); in particular, it is an Oasis™ HLB extraction which is analyzed by LC-MS/MS. The quantification was carried out according to a standard calibration procedure with (+/−)-catechin-2,3,4-^13C3 as internal standard (SI).
This complex salt is administered to a group A of 5 healthy volunteers.
This ct parameter makes it possible to calculate, from the data of table 1, the bioavailability of the (+)-catechin expressed in ng h/ml.

Cl.NCCCCC(N)C(=O)O.Oc1cc(O)c2c(c1)O[C@H](c1ccc(O)c(O)c1)[C@@H](O)C2 [monomeric (+)-catechin hydrochlorolysinate]
c (max): 525 ng/mL | ct (total concentration, area under curve over 6 h): 1263 ± 88 ng·h/mL | increase in c (max) compared with pure monomeric (+)-catechin: 103%
